Measured values from patent US6406866B1 (priority 1993, dated 2002).

Sequences of proteins named here, by UniProt entry; tags and fusion partners are left off. A change or cut given only in a name is not applied to a line headed by its entry.
UniProt P35370: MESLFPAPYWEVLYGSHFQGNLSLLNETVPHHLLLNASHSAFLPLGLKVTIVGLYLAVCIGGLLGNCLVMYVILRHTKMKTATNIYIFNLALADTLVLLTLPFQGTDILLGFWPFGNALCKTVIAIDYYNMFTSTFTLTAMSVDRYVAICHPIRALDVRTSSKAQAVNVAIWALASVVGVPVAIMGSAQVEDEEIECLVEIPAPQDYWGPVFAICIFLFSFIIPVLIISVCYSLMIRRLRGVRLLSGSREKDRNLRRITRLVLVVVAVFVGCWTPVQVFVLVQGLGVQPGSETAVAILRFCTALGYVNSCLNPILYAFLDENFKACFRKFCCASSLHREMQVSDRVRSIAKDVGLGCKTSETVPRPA

Molecular target: novel mammalian opioid receptor (MSOR, LC132) (Rattus norvegicus, UniProt P35370)
Details: membranes from transient (COS-7) and stable (Ltk-) transfectants, 120 min at 22° C.

For `CO[C@]12CC[C@@]3(C[C@@H]1C(C)(C)O)[C@H]1Cc4ccc(O)c5c4[C@@]3(CCN1CC1CC1)[C@H]2O5`, the “specific binding of the radioactively-labeled opioid agonist or antagonist” value was “no specific binding”.
